Columns and labels:
Format in all cases: binding
[1] = test system: human CD16a V176 variant; assay: IgG competition assay (AlphaScreen), V variant; details: N-terminally biotinylated CD16a V176 10 nM, mouse IgG2a acceptor beads
[2] = target: T1, CD16a/FCgRIIIa (F158 variant) (Homo sapiens, UniProt P08637); assay: CD16a/FCgRIIIa HTRF assay (IgG competition on HEK293 cells)
T1 construct: host or cells: HEK293

[3] = target: T2, Fc-tagged human NKp46 (Homo sapiens, UniProt O76036); assay: NKp46 SPR assay (Method 1 and/or Method 2); details: Kd (nM), SPR Method 1 and/or Method 2, Table 3B
T2 construct: purchased ACROBiosystems NC1-H5257
Procedure: SPR experiments were performed to determine ka (M^−1s^−1), kd (s^−1), KD (nM) values (where measurable) of various bicyclic peptides to immobilised NKp46.
For analysis of peptide binding to NKp46, a Biacore 3000 instrument was used with a Cytiva Streptavidin chip. Capture of the protein (recombinant human NKp46-Fc fusion biotinylated via Avi-tag) was carried out at 25° C. with HBS-N (10 mM HEPES, 0.15 M NaCl, pH 7.4) as the running buffer and biotinylated NKp46 was captured to a level of 400-800 RU using a dilution of protein to 0.2 μM in buffer. Buffer was then changed to PBS/0.05% Tween 20 and a dilution series of the peptides was prepared in this buffer with a final DMSO concentration of 0.5% with a top peptide concentration of 100 nM-5000 nM and 6 further 2 or 3-fold dilutions. The SPR analysis was run at 25° C. and a flow rate of 50 μl/min with 60 seconds association and 200-400 seconds dissociation time. Data were corrected for DMSO excluded volume effects. All data were double-referenced for blank injections and reference surface using standard processing procedures and data processing and kinetic fitting were performed using Scrubber software, version 2.0c (BioLogic Software). Data were fitted using simple 1:1 binding model allowing for mass transport effects where appropriate.
Peptides were tested against Fc-tagged human NKp46 (ACROBiosystems, cat no. NC1-H5257). […]

[4] = target: CD16a (V Variant) (Homo sapiens, UniProt P08637, F176V); assay: FcγRIII (CD16a) SPR (Method A and/or Method B), V variant
[5] = target: CD16a (F Variant) (Homo sapiens, UniProt P08637); assay: FcγRIII (CD16a) SPR (Method A and/or Method B), F variant

Compound | IC50 [2] [µM] | Kd [4] [µM] | further results
C#CCCC(=O)NCCCC[C@H](NC(=O)[C@H](C)NC(=O)[C@@H]1CSCc2nc3nc(n2)CSC[C@H](NC(=O)[C@@H]2CCCN2C(=O)[C@H](CC(=O)O)NC(=O)[C@H](CCC(=O)O)NC(=O)[C@H](C(C)C)NC(=O)[C@H](CO)NC(=O)[C@H](Cc2c[nH]c4ccccc24)NC(=O)[C@H](CCCNC(=N)N)NC(=O)[C@@H](NC(=O)[C@H](C)N)CSC3)C(=O)NCC(=O)N[C@@H](C)C(=O)N[C@@H](Cc2c[nH]c3ccccc23)C(=O)N1)C(N)=O [BCY13883, A-(SEQ ID NO: 61)-A-[K(PYA)]] |  |  | IC50 [1]: 2540 nM
CC(C)[C@@H]1NC(=O)[C@H](CO)NC(=O)[C@H](Cc2c[nH]c3ccccc23)NC(=O)[C@H](CCCNC(=N)N)NC(=O)[C@@H](NC(=O)[C@H](C)N)CSCc2nc3nc(n2)CSC[C@H](NC(=O)[C@@H]2CCCN2C(=O)[C@H](CC(=O)O)NC(=O)[C@H](CCC(=O)O)NC1=O)C(=O)NCC(=O)N[C@@H](C)C(=O)N[C@@H](Cc1c[nH]c2ccccc12)C(=O)N[C@H](C(=O)N[C@@H](C)C(N)=O)CSC3 [BCY14950, A-(SEQ ID NO: 61)-A] | 2.03 ± 0.635 |  | 
CC[C@H](C)[C@@H]1NC(=O)[C@H](CCC(=O)O)NC(=O)[C@@H]2CCCN2C(=O)[C@H](Cc2c[nH]cn2)NC(=O)[C@H](CO)NC(=O)[C@H](CC(N)=O)NC(=O)[C@@H]2CCCN2C(=O)[C@@H]2CSCCC(=O)N3CN(CN(C3)C(=O)CCSC[C@@H](C(=O)N[C@@H](C)C(N)=O)NC1=O)C(=O)CCSC[C@H](NC(=O)[C@H](C)N)C(=O)N[C@@H](CC(C)C)C(=O)N[C@@H](CC(C)C)C(=O)N[C@@H](Cc1c[nH]cn1)C(=O)N[C@@H](CC(=O)O)C(=O)N[C@@H](Cc1c[nH]cn1)C(=O)N2 [BCY15105, A-(SEQ ID NO: 7)-A] |  |  | Kd [3]: 3730 nM
CC(C)[C@@H]1NC(=O)[C@H](CO)NC(=O)[C@H](Cc2c[nH]c3ccccc23)NC(=O)[C@H](CCCNC(=N)N)NC(=O)[C@@H](NC(=O)[C@H](C)N)CSCc2nc3nc(n2)CSC[C@H](NC(=O)[C@@H]2CCCN2C(=O)[C@H](CC(C(=O)O)C(=O)O)NC(=O)[C@H](CCC(=O)O)NC1=O)C(=O)NCC(=O)N[C@@H](C)C(=O)N[C@@H](Cc1c[nH]c2ccccc12)C(=O)N[C@H](C(=O)N[C@@H](C)C(N)=O)CSC3 [BCY16608, A-(SEQ ID NO: 179)-A] | 1.8 |  | 
C[C@H](N)C(=O)N[C@H]1CSCc2nc3nc(n2)CSC[C@H](NC(=O)[C@@H]2CCCN2C(=O)[C@H](CC(=O)O)NC(=O)[C@H](CC(=O)O)NC(=O)[C@@H]2CCCN2C(=O)[C@H](Cc2ccc(O)cc2)NC(=O)[C@H](Cc2c[nH]c4ccccc24)NC(=O)[C@H](CCCNC(=N)N)NC1=O)C(=O)NCC(=O)N[C@@H](C)C(=O)N[C@@H](Cc1c[nH]c2ccccc12)C(=O)N[C@H](C(=O)N[C@@H](C)C(N)=O)CSC3 [BCY19033, A-(SEQ ID NO: 182)-A] | 1.42 | 0.421 ± 0.133 | 
CC(C)[C@@H]1NC(=O)[C@H](Cc2c[nH]cn2)NC(=O)[C@H](Cc2c[nH]c3ccccc23)NC(=O)[C@H](CC(N)=O)NC(=O)[C@@H](NC(=O)[C@H](C)N)CSCc2nc3nc(n2)CSC[C@H](NC(=O)[C@@H]2CCCN2C(=O)[C@H](CCC(=O)O)NC(=O)[C@H](Cc2ccc(O)cc2)NC1=O)C(=O)NCC(=O)N[C@@H](C)C(=O)N[C@@H](Cc1c[nH]c2ccccc12)C(=O)N[C@H](C(=O)N[C@@H](C)C(N)=O)CSC3 [BCY19035, A-(SEQ ID NO: 184)-A] | 2.01 | 1.11 | Kd [5]: 4 µM
C[C@H](N)C(=O)N[C@H]1CSCc2nc3nc(n2)CSC[C@H](NC(=O)[C@@H]2CCCN2C(=O)[C@H](CCC(=O)O)NC(=O)[C@H](CC(=O)O)NC(=O)[C@H](Cc2ccccc2)NC(=O)[C@H](Cc2ccc(O)cc2)NC(=O)[C@H](Cc2c[nH]c4ccccc24)NC(=O)[C@H](CCCNC(=N)N)NC1=O)C(=O)NCC(=O)N[C@@H](C)C(=O)N[C@@H](Cc1c[nH]c2ccccc12)C(=O)N[C@H](C(=O)N[C@@H](C)C(N)=O)CSC3 [BCY20372, A-(SEQ ID NO: 218)-A] |  | 0.869 | Kd [5]: 2.41 µM
C[C@H](N)C(=O)N[C@H]1CSCc2nc3nc(n2)CSC[C@H](NC(=O)[C@@H]2CCN2C(=O)[C@H](CCC(=O)O)NC(=O)[C@H](CO)NC(=O)[C@H](CCc2ccccc2)NC(=O)[C@H](Cc2c[nH]cn2)NC(=O)[C@H](Cc2c[nH]c4ccccc24)NC(=O)[C@H](CCCNC(=N)N)NC1=O)C(=O)NCC(=O)N[C@@H](C)C(=O)N[C@@H](Cc1c[nH]c2ccccc12)C(=O)N[C@H](C(=O)N[C@@H](C)C(N)=O)CSC3 [BCY21689, A-(SEQ ID NO: 268)-A] | 1.24 |  | 

Reference: US20240108738A1, “BICYCLIC PEPTIDE LIGANDS SPECIFIC FOR NK CELLS” (Bicycle Tx Limited, priority 2021, published 2024)
